Where a name gives a salt, the structure may show the parent alone. Read-outs that look alike come from different tables or passages of the source.
Legend:
[1] = target: T1, CYP2A6 (Homo sapiens, UniProt P11509); conditions: both, microsomes, pH 7.4
T1 sequence (P11509 1-494): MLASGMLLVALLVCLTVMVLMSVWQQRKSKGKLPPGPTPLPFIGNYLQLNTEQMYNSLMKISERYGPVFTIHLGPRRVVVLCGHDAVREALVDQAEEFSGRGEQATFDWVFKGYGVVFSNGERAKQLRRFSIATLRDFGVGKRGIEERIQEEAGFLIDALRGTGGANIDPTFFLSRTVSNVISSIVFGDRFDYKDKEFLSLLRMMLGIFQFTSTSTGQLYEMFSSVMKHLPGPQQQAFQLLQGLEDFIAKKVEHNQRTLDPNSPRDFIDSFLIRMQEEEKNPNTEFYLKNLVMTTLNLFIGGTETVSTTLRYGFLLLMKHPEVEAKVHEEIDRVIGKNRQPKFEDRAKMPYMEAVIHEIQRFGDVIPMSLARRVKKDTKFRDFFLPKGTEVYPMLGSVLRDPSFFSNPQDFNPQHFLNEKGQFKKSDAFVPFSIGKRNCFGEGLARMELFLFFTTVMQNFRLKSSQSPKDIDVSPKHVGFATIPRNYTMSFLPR

Amino acid sequences for entries named in this document (tags omitted). A change or cut given only in a name is not applied to a line headed by its entry.
UniProt P10635, whole entry: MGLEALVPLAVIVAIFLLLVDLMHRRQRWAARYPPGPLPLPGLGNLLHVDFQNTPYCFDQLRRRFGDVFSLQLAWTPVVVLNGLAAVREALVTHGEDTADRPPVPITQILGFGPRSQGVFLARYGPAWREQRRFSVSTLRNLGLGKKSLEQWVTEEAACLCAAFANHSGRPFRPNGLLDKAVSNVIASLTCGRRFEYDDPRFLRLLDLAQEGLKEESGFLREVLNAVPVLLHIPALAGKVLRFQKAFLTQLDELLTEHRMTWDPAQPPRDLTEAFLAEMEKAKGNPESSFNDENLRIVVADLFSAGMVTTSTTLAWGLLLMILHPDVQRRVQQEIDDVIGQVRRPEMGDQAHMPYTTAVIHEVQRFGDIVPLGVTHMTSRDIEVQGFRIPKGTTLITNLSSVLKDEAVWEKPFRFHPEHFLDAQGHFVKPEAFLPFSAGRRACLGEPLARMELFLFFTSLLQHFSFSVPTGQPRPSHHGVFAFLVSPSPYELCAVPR
UniProt P11712, whole entry: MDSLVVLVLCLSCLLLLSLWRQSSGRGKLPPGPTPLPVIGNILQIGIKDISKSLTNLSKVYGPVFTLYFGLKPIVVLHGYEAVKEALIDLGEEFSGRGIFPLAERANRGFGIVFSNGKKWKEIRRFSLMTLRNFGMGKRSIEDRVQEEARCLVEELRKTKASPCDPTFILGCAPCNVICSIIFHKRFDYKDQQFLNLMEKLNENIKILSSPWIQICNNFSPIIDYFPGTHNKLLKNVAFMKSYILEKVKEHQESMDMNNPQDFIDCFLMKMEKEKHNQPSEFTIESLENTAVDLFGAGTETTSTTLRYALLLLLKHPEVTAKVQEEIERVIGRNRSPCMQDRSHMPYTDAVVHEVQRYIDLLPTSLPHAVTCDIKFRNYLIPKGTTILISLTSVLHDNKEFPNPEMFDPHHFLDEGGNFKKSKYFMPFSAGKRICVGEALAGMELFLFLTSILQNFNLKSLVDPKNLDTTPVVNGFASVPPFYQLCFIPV
UniProt P33261, whole entry: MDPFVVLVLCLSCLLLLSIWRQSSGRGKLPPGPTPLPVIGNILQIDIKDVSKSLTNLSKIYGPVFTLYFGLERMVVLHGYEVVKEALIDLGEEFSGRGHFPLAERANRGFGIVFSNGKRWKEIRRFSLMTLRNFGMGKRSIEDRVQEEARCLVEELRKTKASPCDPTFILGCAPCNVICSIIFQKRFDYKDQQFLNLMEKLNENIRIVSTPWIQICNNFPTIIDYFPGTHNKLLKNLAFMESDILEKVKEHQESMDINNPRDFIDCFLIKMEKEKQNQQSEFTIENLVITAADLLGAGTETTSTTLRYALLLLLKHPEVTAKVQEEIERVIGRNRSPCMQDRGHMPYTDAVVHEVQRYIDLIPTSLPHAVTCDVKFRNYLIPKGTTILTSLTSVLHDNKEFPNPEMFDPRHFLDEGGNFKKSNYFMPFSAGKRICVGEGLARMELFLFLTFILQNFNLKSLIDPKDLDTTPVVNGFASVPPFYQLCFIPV
UniProt P20813: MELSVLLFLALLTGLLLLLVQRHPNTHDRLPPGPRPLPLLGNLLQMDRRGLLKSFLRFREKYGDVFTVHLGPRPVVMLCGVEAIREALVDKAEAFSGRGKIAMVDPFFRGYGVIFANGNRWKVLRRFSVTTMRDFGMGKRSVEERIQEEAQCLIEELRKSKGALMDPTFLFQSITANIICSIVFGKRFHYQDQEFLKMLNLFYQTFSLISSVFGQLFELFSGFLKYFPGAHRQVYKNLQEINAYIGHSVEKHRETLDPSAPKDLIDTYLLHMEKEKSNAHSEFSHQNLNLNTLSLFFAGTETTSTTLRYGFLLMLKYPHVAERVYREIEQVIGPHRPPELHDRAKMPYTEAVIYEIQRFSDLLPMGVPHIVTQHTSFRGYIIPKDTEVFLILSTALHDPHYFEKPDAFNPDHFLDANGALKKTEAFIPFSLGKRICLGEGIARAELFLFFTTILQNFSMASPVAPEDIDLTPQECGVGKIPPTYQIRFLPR
UniProt P10632, whole entry: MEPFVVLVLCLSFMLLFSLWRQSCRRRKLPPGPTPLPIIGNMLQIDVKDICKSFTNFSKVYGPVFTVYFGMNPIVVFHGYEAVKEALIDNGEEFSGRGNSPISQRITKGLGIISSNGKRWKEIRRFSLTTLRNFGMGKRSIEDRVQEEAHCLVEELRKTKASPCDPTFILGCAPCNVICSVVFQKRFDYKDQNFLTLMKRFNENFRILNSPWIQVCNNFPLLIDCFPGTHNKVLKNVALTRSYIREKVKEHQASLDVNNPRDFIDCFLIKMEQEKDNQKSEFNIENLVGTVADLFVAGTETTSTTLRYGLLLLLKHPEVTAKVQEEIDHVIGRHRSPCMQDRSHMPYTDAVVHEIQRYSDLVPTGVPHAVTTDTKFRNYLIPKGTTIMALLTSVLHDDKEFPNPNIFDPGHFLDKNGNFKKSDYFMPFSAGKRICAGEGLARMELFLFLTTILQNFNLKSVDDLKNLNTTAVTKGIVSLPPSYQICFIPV
UniProt P05181: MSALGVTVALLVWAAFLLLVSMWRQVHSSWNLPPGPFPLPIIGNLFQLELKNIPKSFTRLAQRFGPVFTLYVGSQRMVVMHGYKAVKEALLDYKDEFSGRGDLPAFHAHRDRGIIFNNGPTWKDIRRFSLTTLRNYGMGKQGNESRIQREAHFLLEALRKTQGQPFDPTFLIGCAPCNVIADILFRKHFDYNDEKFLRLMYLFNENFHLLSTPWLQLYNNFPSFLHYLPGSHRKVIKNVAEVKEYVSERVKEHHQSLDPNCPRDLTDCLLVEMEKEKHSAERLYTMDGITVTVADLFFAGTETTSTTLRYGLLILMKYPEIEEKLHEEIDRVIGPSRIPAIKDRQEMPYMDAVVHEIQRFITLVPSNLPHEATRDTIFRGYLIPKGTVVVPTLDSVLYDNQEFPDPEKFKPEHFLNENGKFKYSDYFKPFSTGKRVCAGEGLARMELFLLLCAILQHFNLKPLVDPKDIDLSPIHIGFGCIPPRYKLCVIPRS
UniProt P05177, whole entry: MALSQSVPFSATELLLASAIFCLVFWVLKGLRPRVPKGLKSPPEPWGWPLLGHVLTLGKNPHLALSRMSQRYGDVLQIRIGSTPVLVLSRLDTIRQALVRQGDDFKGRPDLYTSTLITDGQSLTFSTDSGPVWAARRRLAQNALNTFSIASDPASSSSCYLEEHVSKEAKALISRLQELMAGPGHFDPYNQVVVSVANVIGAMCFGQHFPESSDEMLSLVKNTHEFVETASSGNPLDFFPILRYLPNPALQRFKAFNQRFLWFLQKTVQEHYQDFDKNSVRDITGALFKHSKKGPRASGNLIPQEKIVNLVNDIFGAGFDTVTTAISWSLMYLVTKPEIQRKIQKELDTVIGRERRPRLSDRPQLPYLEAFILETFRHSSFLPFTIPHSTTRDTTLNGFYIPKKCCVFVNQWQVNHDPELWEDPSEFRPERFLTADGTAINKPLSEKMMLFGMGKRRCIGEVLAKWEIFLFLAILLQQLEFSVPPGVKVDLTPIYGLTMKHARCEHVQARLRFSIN

[2] = target: T1, CYP2A6; test: biochemical; conditions: IC50 against CYP2A6; human liver microsomes
[3] = target: CYP2D6 (Homo sapiens, UniProt P10635); conditions: both, microsomes, pH 7.4
[4] = target: CYP2C9 (Homo sapiens, UniProt P11712); conditions: both, microsomes, pH 7.4
[5] = target: T2, CYP2C19 (Homo sapiens, UniProt P33261); conditions: both, microsomes, pH 7.4
[6] = target: CYP2B6 (Homo sapiens, UniProt P20813)
[7] = target: CYP2C8 (Homo sapiens, UniProt P10632)
[8] = target: CYP2E1 (Homo sapiens, UniProt P05181)
[9] = target: CYP1A2 (Homo sapiens, UniProt P05177); test: CYP1A2 inhibition assay, human liver microsomes, phenacetin probe (cocktail); conditions: Table 6
[10] = target: T2, CYP2C19; test: CYP2C19 inhibition assay, human liver microsomes, omeprazole probe (cocktail); conditions: Table 6
[11] = both, human, microsomes, pH 7.4

## NCc1ccc(-c2cnccc2-c2ccco2)s1 [Compound AD, (5-(4-(furan-2-yl)pyridin-3-yl)thiophene-2-yl)methanamine Dihydrochloride]
[1]
  IC50: 160 nM
[2]
  IC50: ≤ 160 nM

## Cc1ccncc1C#CCN [Compound C, 3-(4-methylpyridin-3-yl)prop-2-yn-1-amine]
[3]
  IC50 ratio CYP2D6/CYP2A6: 44
[4]
  IC50 ratio CYP2C9/CYP2A6: 655
[5]
  IC50 ratio CYP2C19/CYP2A6: 145
[6]; [11]
  IC50 ratio CYP2B6/CYP2A6: 364
[7]; [11]
  IC50 ratio CYP2C8/CYP2A6: 156
[8]; [11]
  IC50 ratio CYP2E1/CYP2A6: 345

## NCC#Cc1cnccc1-c1ccco1 [Compound M, 3-(4-Furan-2-yl-pyridin-3-yl)-prop-2-ynylamine Dihydrochloride]
[6]; Table 6
  IC50 ratio CYP2B6/CYP2A6: 8.9
[7]; Table 6
  IC50 ratio CYP2C8/CYP2A6: 13
[8]; Table 6
  IC50 ratio CYP2E1/CYP2A6: 3.4
[9]
  IC50 ratio CYP1A2/CYP2A6: 2.5
[10]
  IC50 ratio CYP2C19/CYP2A6: 6.6

— patent US20210276987A1, “PHARMACEUTICAL AGENTS FOR USE IN SMOKING AND TOBACCO CESSATION” (Washington State University, priority 2018, published 2021)
